AlphaSeq binding of Ab-14 heavy chain variants to a spike HR2 peptide

Binding partner: SARS-CoV-2 spike HR2 peptide, sequence PDVDLGDISGINAS.

Ab-14 is the parent antibody, in scFv form: VH, then a 15-residue (Gly4Ser)3 linker, then VL. The light chain is unchanged in all variants.
VH: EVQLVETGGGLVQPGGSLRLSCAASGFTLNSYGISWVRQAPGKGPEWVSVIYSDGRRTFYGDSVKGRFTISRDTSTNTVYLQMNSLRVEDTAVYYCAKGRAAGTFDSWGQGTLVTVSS
VL: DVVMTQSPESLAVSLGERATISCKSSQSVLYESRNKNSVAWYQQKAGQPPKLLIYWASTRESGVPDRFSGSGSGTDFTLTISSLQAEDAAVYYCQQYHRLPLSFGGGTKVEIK

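The parent was found by panning a naive human phage display library on the peptide. AAYL49 was designed without a model: most single CDR substitutions and a random sample of double and triple ones. AlphaSeq pools MATa yeast showing the antibodies with MATalpha yeast showing the peptide. After mating in shaken culture at 30 °C for 16 h, diploids were selected and their barcode pairs sequenced. Scores were corrected for input abundance and mapped to Kd with protein pairs of known affinity run in the same pool. There are three technical replicates.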

The parent's heavy chain CDRs are GFTLNSYGIS, VIYSDGRRTFYGDSVK, GRAAGTFDS; each variant's own CDRs replace them letter for letter. Every variant below is changed at G61 of the VH (sequential numbering). Values are apparent Kd, the geometric mean of the replicates that gave a signal; lower means stronger binding. An entry "no signal" has no value in the source: the pair was not observed among the diploids in any replicate. This suggests poor binding but is not conclusive. Entries are sorted by rising average, undetected variants last. As a blank, each scFv also met three strains without target: over library AAYL49, 15% of these pairings were detected, typically at 11 µM and seldom below 680 nM.

Variant GFTLNSYGIS / VIYSDGRRTFYTDSVK / GRAAGTFDS gave 4.9 nM (3 of 3 replicates). For GFTLNSYGIS / VIYSDGRRTFYRDSVK / GRAAGTFDS, the assay gave 5.4 nM (3 of 3 replicates). With GFTLNSYGIS / VIYSDGRRTFYIDSVK / GRQAGTLDS the result was 7.6 nM (3 of 3 replicates). With GFTLNSYGIS / VIYSDGRRTFYKDSVK / GRAAGTFDS the result was 61 nM (3 of 3 replicates). For QFGLNSYGIS / VIYSDGRRTFYADSVK / GRAAGTFDS, the assay gave 210 nM (3 of 3 replicates).

Variant GFTLDSYGIS / VAYSDGRRTFYADSVK / GRAAGTFDS showed 310 nM (3 of 3 replicates). Variant GFTLNSYGIS / VIYSDGRRTFYHDFVK / GRAAGTIDS showed 2.0 µM (1 of 3 replicates). For NFTLNSYGIS / VIYSDGRRTFYVDMVK / GRAAGTFDS, the assay gave 2.5 µM (1 of 3 replicates). Variant GFTLNMYFIS / VIYSDGRRTFYYDSVK / GRAAGTFDS gave 2.6 µM (1 of 3 replicates). Variant GFTLNSYGYS / VIYSDGRRTFEFDSVK / GRAAGTFDS gave 5.1 µM (1 of 3 replicates).

Variant GFTLNSYGIS / VIYSDGRRTFYLDSMK / GRAAGTFDS gave 7.7 µM (1 of 3 replicates). With GFTINSYGIS / VIYSDGRRTFYFDSVK / GRAAGTFHS the result was 14 µM (2 of 3 replicates). With GFTLNSYGIM / VIYSDGRRTFYEDSVK / GRAAGTFDW the result was 21 µM (3 of 3 replicates). For GFTLNSYGIS / TIYSDGRRTFYNDGVK / GRAAGTFDS, the assay gave 33 µM (1 of 3 replicates). For GFTLNSYGIS / VDYSDGRRMFYDDSVK / GRAAGTFDS, the assay gave 34 µM (3 of 3 replicates).

For GFTLNSYGIS / VIYSPGRRTFYIDSVK / GRAAGTFDS, the assay gave 62 µM (3 of 3 replicates). For GFTLNRYGIS / VIYSIGRRTFYNDSVK / GRAAGTFDS, the assay gave no signal (0 of 3 replicates). With GFTLNSYGIS / VIYSDGRRTFWSDSVK / GRAMGTFDS the result was no signal (0 of 3 replicates). With GFTLNSYGIS / VIYSEGRRNFYADSVK / GRAAGTFDS the result was no signal (0 of 3 replicates). For GFTLNSYGIS / VIYSDGRRTFYRDPVK / GRAAGTFSS, the assay gave no signal (0 of 3 replicates).

Variant GFTLNSYHIS / VIYSDGRRTFYHDSVK / GRAAGTFDS gave no signal (0 of 3 replicates). Variant GFTLNSYGIS / VIYSDGCRTFYLDSVK / GRAAGTFDS showed no signal (0 of 3 replicates). For GFTLNSYGIS / VIYLDGRLTFYCDSVK / GRAAGTFDS, the assay gave no signal (0 of 3 replicates). Variant GFFLNSYGIS / VIYSPGRRTFYPDSVK / GRAAGTFDS gave no signal (0 of 3 replicates). Variant GFTLNSYGIS / KIYSDGRRTFCDDSVK / GRAAGTFDS gave no signal (0 of 3 replicates).

With GFTENSYGIS / VIYSFGRRTFYKDSVK / GRAAGTFDS the result was no signal (0 of 3 replicates). With GFTLNSAGIS / VIYSDGRRTFYNDSVK / GRAAGTFDS the result was no signal (0 of 3 replicates). Variant GFTLNGYGIS / YIYSDGRRTFYPDSVK / GRAAGTFDS gave no signal (0 of 3 replicates). For GFTLNCYGIS / VIYSDGRRTFYEDSVK / GRDAGTFDS, the assay gave no signal (0 of 3 replicates). For GFTLNSYGIW / VIYSDGRRTFYMDSVK / GRAAGTFDS, the assay gave no signal (0 of 3 replicates).

For GFTLNSYGIS / VIYSDGRRTFIWDSVK / GRAAGTFDS, the assay gave no signal (0 of 3 replicates). For GFTLNSYGIS / VIESDGRRTFYPDSVK / GRAAATFDS, the assay gave no signal (0 of 3 replicates). Variant GFTLNSYGIS / VIYSDGRRTFYRDSVK / GRKAGTFDP showed no signal (0 of 3 replicates).

Repeated from above, the 3 best binders with a signal in all replicates:

CDR-H1	CDR-H2	CDR-H3	apparent Kd	seen in
GFTLNSYGIS	VIYSDGRRTFYTDSVK	GRAAGTFDS	4.9 nM	3/3
GFTLNSYGIS	VIYSDGRRTFYRDSVK	GRAAGTFDS	5.4 nM	3/3
GFTLNSYGIS	VIYSDGRRTFYIDSVK	GRQAGTLDS	7.6 nM	3/3

Parent in this assay: reference entry 4.4 nM, copy in this library 13 µM (one replicate of three).

Source: Engelhart et al. 2022 (doi:10.1038/s41597-022-01779-4), MIT Lincoln Laboratory and A-Alpha Bio; data file from the FLAb repository.